Target: T1, MC3R (Homo sapiens, UniProt P41968)
T1 construct: The entire GPCR coding regions were cloned downstream of the CMV promoter and upstream of the ED; expressed in transfected cells; host or cells: HEK293 or CHOK1 cells, retroviral infection (pLNCX2)
Experiment: PathHunter β-arrestin2-EA / GPCR-ED enzyme fragment complementation, MC3R-ED fusion
Format: cell-based
Settings: saturating ligand
Text: The following are the directions for performing the determinations of the response to inducing agents and comparing the prior art ED (pK1) to an ED of the subject invention (pK2):
The cells used were HEK293 and CHOK1 cells. Following substantially the procedures described in U.S. patent application Ser. No. 10/229,247, filed Aug. 27, 2002, and U.S. patent application Ser. No. 11/132,764 (Publication no. 2005/0287522), filed May 18, 2005, whose disclosures are specifically incorporated by reference, each of the cell lines was infected with retroviral constructs. The viral plasmid was the PLNCX2 vector from Clontech. The plasmid includes sufficient retroviral sequences to enable viral production in the appropriate packaging cell lines. The plasmid also includes the neomycin antibiotic resistance gene and a CMV promoter that is used to drive expression of the target ED fusion. […] The ED is fused at the intracellular terminus, i.e., C-terminus of the proteins.
Preparation of Detection Reagents—The detection reagents must be prepared as a working solution prior to use, and once prepared are stable for at least 24 hours at room temperature with no impact on assay performance. The detection reagents consist of the substrate and co-factors for chemiluminescence signal detection, as well as the reagents necessary for selective cell permeabilization. […]

By UniProt entry, the sequences of proteins in these tests, tags left out.
UniProt P41968, whole entry, species assumed: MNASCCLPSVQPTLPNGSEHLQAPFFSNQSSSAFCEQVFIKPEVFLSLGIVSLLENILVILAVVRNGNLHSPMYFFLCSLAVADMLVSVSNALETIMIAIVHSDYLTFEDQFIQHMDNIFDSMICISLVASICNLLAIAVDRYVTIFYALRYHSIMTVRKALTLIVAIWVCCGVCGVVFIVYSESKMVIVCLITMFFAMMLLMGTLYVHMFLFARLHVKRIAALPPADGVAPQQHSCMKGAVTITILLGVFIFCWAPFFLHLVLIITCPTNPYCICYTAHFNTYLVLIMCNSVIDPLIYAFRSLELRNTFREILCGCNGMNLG

Fold induct. (MC3R fused to PK1 ED): none
Fold induct. (MC3R fused to PK2 ED): 3.2 fold
Substance: aMSH

Reference: patent US8101373B2, “β-galactosidase donor fragments” (Discoverx Corporation, priority 2007, dated 2012)
